Usually Ki stands for a measure of affinity in units of concentration, obtained from inhibition or displacement. Read a high Ki as weaker binding.

Protein sequences, listed by entry. Tags and fused reporters are not part of them.
UniProt P31652, whole entry: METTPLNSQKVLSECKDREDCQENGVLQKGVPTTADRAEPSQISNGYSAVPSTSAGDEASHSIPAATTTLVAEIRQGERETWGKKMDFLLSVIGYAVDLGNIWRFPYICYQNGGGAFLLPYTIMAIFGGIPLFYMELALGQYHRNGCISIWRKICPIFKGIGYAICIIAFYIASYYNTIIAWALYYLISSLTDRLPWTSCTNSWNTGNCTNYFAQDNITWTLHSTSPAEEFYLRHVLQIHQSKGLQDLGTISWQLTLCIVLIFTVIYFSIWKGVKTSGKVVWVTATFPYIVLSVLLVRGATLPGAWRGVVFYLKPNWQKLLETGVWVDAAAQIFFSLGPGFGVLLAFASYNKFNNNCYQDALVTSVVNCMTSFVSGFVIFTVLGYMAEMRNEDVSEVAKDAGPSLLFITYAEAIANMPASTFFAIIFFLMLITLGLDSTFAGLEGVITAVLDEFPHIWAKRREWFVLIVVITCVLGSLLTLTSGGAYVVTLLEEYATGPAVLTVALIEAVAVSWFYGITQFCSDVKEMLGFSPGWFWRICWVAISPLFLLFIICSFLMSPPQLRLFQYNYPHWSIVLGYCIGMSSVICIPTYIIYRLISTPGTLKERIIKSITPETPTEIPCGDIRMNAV

The text below walks through data of patent publication US8273762B2, “Hexahydro-pyrrolo-isoquinoline compounds” (Janssen Pharmaceutica NV, priority 2005, dated 2012).

For one assay, the target named is T1, Rat SERT (Rattus norvegicus, UniProt P31652).
T1 construct: A rat brain without cerebellum (Zivic Laboratories, Inc.—Pittsburgh, Pa.) was homogenized; tissue Zivic Laboratories, Inc; host or cells: rat brain without cerebellum, membranes
Put plainly: Rat brain SERT binding ([3H]-Citalopram displacement).

A further assay concerns H3 receptor. Particulars: Imetit (1 mg/kg) i.p. alone, drinking measured for 60 min, average ± s.e.m.

Regarding `c1ccc([C@H]2CN3CCC[C@H]3c3cc(OCCCN4CCCCC4)ccc32)nc1` (relative stereo) [Example 25], on Rat SERT, the Ki came out at 3 nM.
Same read-out and setting: under `c1cc([C@@H]2CN3CCC[C@H]3c3cc(OCCCN4CCCCC4)ccc32)ccn1` (relative stereo) [Example 27A, Cis-9-(3-Piperidin-1-yl-propoxy)-6-pyridin-4-yl-1,2,3,5,6,10b-hexahydro-pyrrolo[2,1-a]isoquinoline] stands 20 nM; under `c1cc([C@H]2CN3CCC[C@H]3c3cc(OCCCN4CCCCC4)ccc32)ccn1` (relative stereo) [Example 27B, Trans-9-(3-Piperidin-1-yl-propoxy)-6-pyridin-4-yl-1,2,3,5,6,10b-hexahydro-pyrrolo[2,1-a]isoquinoline], 26 nM.
For `N=C(N)SCCc1cnc[nH]1` [Imetit, imetit, reference compound], the “Water Consumed” value in the assay with H3 receptor is 2.53 ± 0.60 mL.
